Compound activity deposited in PubChem by National Center for Advancing Translational Sciences (NCATS).
JMJD2E inh = blocks human JMJD2E demethylase activity; Potency, µM (titrated, usually from 57.1 µM), actives largely listed as inhibitors; AID 2147; JMJD2E catalytic domain, FDH-coupled NADH fluorescence (FDH is formaldehyde dehydrogenase); B2RXH2; 1.6% of 230,000 active; active means well fitted inhibition curve with a large enough effect, not every such curve was filed as active; inconclusive means small, poorly fitted or top-dose-only effect, or another doubt; inactive means no such curve, though single readings can be large or run the other way; further: nearly all actives have a fitted effect of over 50% in size
Lamin A splicing = modulators of lamin A splicing; HeLa LMNA splicing GFP/RFP minigene ratio, 48 h; Potency, µM (series often up to 46.1 µM), actives largely listed as inhibitors; 0.01% of 200,000 active; active means well fitted inhibition curve with a large enough effect in the signal ratio, with a control signal flat, not every such curve was filed as active; inconclusive means small, poorly fitted or top-dose-only effect, or effect the other way, or a change in a side signal; the % refers to the signal ratio
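S3 HeLa stable clones carrying a lamin A-EGFP splicing minigene plus DsRed2 were seeded at 600 cells/well in Opti-MEM with 2% FBS, pin-dosed and incubated 48 h at 37°C. Acumen cytometry (488 nm) gave the GFP/RFP total-intensity ratio.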
G9a inh = G9a (human) methyltransferase inhibition; Q96KQ7; G9a H3K9 monomethylation, AlphaScreen, 2 h; Potency, µM (highest dose often 102 µM), most hits filed as inhibitors; 8.8% of 350,000 active; further: nearly all actives have a fitted effect of over 75% in size
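Enzyme 20 nM + cpd, 15 min RT; add b-H3K9 pep 500 nM / SAM 20 uM; 2 h RT; anti-H3K9me1 Ab 0.5 ug/mL + SA donor / anti-rabbit acceptor beads 20 ug/mL each, 10 min; AlphaScreen read.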
Sfp inh = inhibitors of Bacillus subtilis Sfp phosphopantetheinyl transferase; Biochemical Sfp PPTase activity, qHTS; AID 1490; Q9F4F7; 3.5% of 310,000 active; Potency, µM, most hits filed as inhibitors;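 further: the enzyme is Sfp with the accession as filed and its product quenches rhodamine fluorescence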
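Reaction rates are the 30-min fluorescence difference (ex 525, em 598 nm) in wells containing 15 nM Sfp, 5 uM rhodamine-CoA and 12.5 uM BHQ-2-YbbR at pH 7.6 with 10 mM MgCl2.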
ALDH1A1 block = inhibitors of human aldehyde dehydrogenase 1A1; Purified ALDH1A1, NADH fluorescence, propionaldehyde substrate; Potency, µM (top dose mostly 75.3 µM), usual class: inhibitors; 7.3% of 220,000 active; active means well fitted inhibition curve with a large enough effect, not every such curve was filed as active; inconclusive means small, poorly fitted or top-dose-only effect, or another doubt; inactive means no such curve, though single readings can be large or run the other way
miR-21 reporter = raises the signal of a miR-21 reporter; Potency, µM (doses to about 38.3 µM); HeLa miR-21 FLuc reporter, luciferase, 48 h; AID 2288; 340,000 tested, under 10 active; active = well fitted rising curve with a large enough effect; inconclusive = small, poorly fitted or top-dose-only effect; inactive = no such curve, though single readings can be large or run the other way;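 further: miR-21 action dims this reporter so a rising signal means less miR-21 action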
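Luminescence from a firefly luciferase reporter carrying a miR-21 binding site downstream, stably expressed under a CMV promoter in HeLa cells that make miR-21 endogenously, reports miRNA modulation after 48 h compound exposure up to approximately 40uM final.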
A number is an active result; – = inactive; ? = inconclusive; · = no result; [ ] = another dose, or the depositor's remark. Hits are enriched below; roughly 13% of the tested compounds scored in any of these assays. Unless noted, the call rests on the fitted dose curve; in most records, active means well fitted curve in the direction sought with a large enough effect; inconclusive means small, poorly fitted or top-dose-only effect, or another doubt; inactive means no such curve, though single readings can be large; an effect the other way counts as inactive or inconclusive.

SMILES | JMJD2E inh | Lamin A splicing | G9a inh | Sfp inh | ALDH1A1 block | miR-21 reporter
O=C(O)CCCCCN1C(=O)C(O)=C(C(=O)/C=C/c2ccccc2)C1c1ccc2c(c1)OCO2 (stereo not given) | ? | – | 50µM | – | ? | –
O=c1[nH][nH]c(=S)n1-c1ccccc1C(F)(F)F | 6.3µM | · | · | 7.9µM | · | –
COc1ccc(/C=N/NC(=O)c2ccc3nc[nH]c3c2)cc1OC | – | · | – | – | · | –
O=C(N/N=C/c1cccc([N+](=O)[O-])c1)c1ccc2nc[nH]c2c1 | – | – | – | – | 11µM | –
O=C(N/N=C/c1ccc([N+](=O)[O-])cc1)c1cc(C2CC2)[nH]n1 | · | · | 79µM | – | · | –
O=C(N/N=C/c1ccc([N+](=O)[O-])cc1)c1ccc2nc[nH]c2c1 | – | ? | – | – | 6.3µM | –
O=C(N/N=C/c1ccc2ncccc2c1)c1cccc([N+](=O)[O-])c1 | · | · | 79µM | – | · | –
COC(=O)c1ccc(/C=N/NC(=O)c2ccc3nc[nH]c3c2)cc1 | · | · | – | – | · | –
CCOC(=O)c1cccc(NC(=O)c2cc3c(=O)n(C)c4ccccc4c3n2C)c1 | · | · | – | · | · | –
CC(C)N1C(=O)CC2(CC[N+](C)(CCOC(=O)C(c3ccccc3)c3ccccc3)CC2)C1=O (stereo not given) | – | – | ? | ? | 25µM | –
O=C(Nc1nc2c(s1)CCCC2)c1cccc(S(=O)(=O)N2CCCc3ccccc32)c1 | ? | ? | – | – | ? | –
CCc1cccc(NC(=O)c2cccc(S(=O)(=O)N3CCN(C)CC3)c2)c1 | · | · | – | – | · | –
CN1CCc2nc(NC(=O)c3cccc(S(=O)(=O)N4CCc5ccccc54)c3)sc2C1 | – | – | –[12.7 µM] | ? | 13µM | –
CCc1cccc(CC)c1NC(=O)c1cccc(S(=O)(=O)N2CCN(C)CC2)c1 | · | · | 10µM | – | · | –
CCc1cccc(CC)c1NC(=O)c1ccc2c(c1)CCN2S(=O)(=O)c1ccccc1 | · | · | 2.5µM | · | · | ?
COc1cccc(CC(NC(C)=O)C(=O)NC2CCN(C(=O)c3ccc(Cl)cc3)CC2)c1OC (stereo not given) | · | · | – | – | · | –
COC(=O)c1ccccc1N(C)S(=O)(=O)c1cc2c3c(c1)CC(=O)N3CCC2 | · | – | – | · | · | –
Cc1cc(=O)c2cc3nc(-c4cccnc4)oc3c(Br)c2o1 | ? | · | 40µM | – | – | –
COc1ccccc1-n1cnnc1SCC(=O)Nc1cccc(S(=O)(=O)N2CCCCC2)c1 | – | ? | – | – | 0.63µM | –
COc1ccccc1-n1cnnc1SCC(=O)Nc1ncc(Cl)cc1Cl | – | – | – | – | 4.5µM | –
COCCn1cnnc1SCC(=O)Nc1ccc(Br)cc1F | – | · | – | – | 13µM | –
COc1ccccc1-n1cnnc1SCC(=O)Nc1nc(C)c(Cl)cc1Cl | – | – | – | – | ? | –
COCCCn1cnnc1SCC(=O)Nc1ccc(S(=O)(=O)N2CCCC2)cc1 | – | – | – | – | 11µM | –
CCOc1ccc2nc(SCC(=O)N3CCCCCC3)c(C#N)cc2c1 | ? | – | –[12.7 µM] | – | ? | –
CCOc1ccc2cc(C#N)c(SCC(=O)N3CCOCC3)nc2c1 | – | – | 50µM | – | 3.5µM | –
SMILES | JMJD2E inh | Lamin A splicing | G9a inh | Sfp inh | ALDH1A1 block | miR-21 reporter
OC(CNCCc1ccc(C(F)(F)F)cc1)COC(c1ccccc1)c1ccccc1 (stereo not given) | · | · | ? | 56µM | · | ?
COc1ccc(C(OCC(O)CNCCc2ccc(S(N)(=O)=O)cc2)c2ccc(OC)cc2)cc1 (stereo not given) | · | · | – | – | · | –
O=C(NCc1ccccc1)C12CN(Cc3ccccc3)CC1C(c1cccc([N+](=O)[O-])c1)=NO2 (stereo not given) | – | – | 8.9µM | – | ? | –
O=C(NCc1ccc(OC(F)(F)F)cc1)C12CN(Cc3ccccc3)CC1C(c1cccc([N+](=O)[O-])c1)=NO2 (stereo not given) | – | – | ? | – | – | –
Cc1ccc(CNC(=O)C23CN(Cc4ccccc4)CC2C(c2ccc([N+](=O)[O-])cc2)=NO3)cc1 (stereo not given) | – | ? | ? | 40µM | ? | –
Cc1ccc(CCNC(=O)C23CN(Cc4ccccc4)CC2C(c2ccc([N+](=O)[O-])cc2)=NO3)cc1 (stereo not given) | – | ? | – | 10µM | 14µM | –
CCN(CC)CCNC(=O)C1CCN(c2cc(C)nc3c(-c4ccc(Cl)cc4)c(C)nn23)CC1 | · | · | – | · | · | –
COC(=O)c1ccnc(SCC(=O)c2ccccc2)c1 | – | – | – | – | – | –
COC(=O)c1ccnc(/C=N/O)c1 | ? | – | ? | 50µM | – | –
COc1ccc(C2Sc3ccccc3N(CCN(C)C)C(=O)[C@@H]2OC(C)=O)cc1 (stereo not given in full) | · | · | · | – | ? | ·
CCC(=O)Nc1cccc2ccccc12 | – | ? | – | – | – | –
CCNC(=O)CC1SC(=Nc2cccc3ccccc23)N(C)C1=O (stereo not given) | ? | ? | 50µM | – | – | –
COc1ccc(N=C2SC(CC(=O)Nc3ccccc3F)C(=O)N2Cc2ccco2)cc1 (stereo not given) | – | ? | – | – | 2.5µM | –
Cc1cc(C)cc(N=C2SC(CC(=O)Nc3ccccc3)C(=O)N2CCN2CCOCC2)c1 (stereo not given) | – | – | 50µM | – | – | –
CCCN1C(=O)SC(CC(=O)Nc2cccc3ccccc23)C1=O (stereo not given) | ? | – | – | – | 22µM | –
CCOc1ccc(CNC(=O)CCS(=O)(=O)c2cc3c(cc2Cl)NC(=O)CO3)cc1OC | · | – | – | · | · | –
CC(C)CC(C(=O)NCC1CCN(Cc2ccc(F)cc2)CC1)N1Cc2ccccc2C1=O (stereo not given) | · | – | – | · | · | –
O=C1CC(c2nnc(Cc3ccc(F)cc3)o2)CN1c1ccccc1 (stereo not given) | · | · | – | · | · | –
CCCN1C(=O)SC(CC(=O)Nc2ccccc2)C1=O (stereo not given) | – | – | – | – | 20µM | –
O=C(CC1SC(=Nc2ccccc2)N(CCO)C1=O)Nc1ccccc1 (stereo not given) | – | · | · | – | – | –
COc1cccc(N=C2SC(CC(=O)Nc3ccccc3)C(=O)N2Cc2ccccn2)c1 (stereo not given) | – | – | – | ? | 8.9µM | –
O=C(CC1SC(=Nc2ccccc2)N(CCc2ccccn2)C1=O)Nc1ccc(F)cc1 (stereo not given) | – | – | – | – | – | –
COc1ccc(OC)c(CNC(=O)c2nn(-c3ccc(OC)c(Cl)c3)c(=O)c3c2c2ccccc2n3C)c1 | · | · | – | · | · | –
